Experimental data published in ChEMBL document CHEMBL1126082, “Nucleosides and nucleotides. 107. 2-(cycloalkylalkynyl)adenosines: adenosine A2 receptor agonists with potent antihypertensive effects” (J Med Chem, 1992).

Protein sequences, listed by entry. Tags and fused reporters are not part of them. Lines headed by an entry give the natural chain unless they say otherwise; changes in a name come on top.
UniProt P29276: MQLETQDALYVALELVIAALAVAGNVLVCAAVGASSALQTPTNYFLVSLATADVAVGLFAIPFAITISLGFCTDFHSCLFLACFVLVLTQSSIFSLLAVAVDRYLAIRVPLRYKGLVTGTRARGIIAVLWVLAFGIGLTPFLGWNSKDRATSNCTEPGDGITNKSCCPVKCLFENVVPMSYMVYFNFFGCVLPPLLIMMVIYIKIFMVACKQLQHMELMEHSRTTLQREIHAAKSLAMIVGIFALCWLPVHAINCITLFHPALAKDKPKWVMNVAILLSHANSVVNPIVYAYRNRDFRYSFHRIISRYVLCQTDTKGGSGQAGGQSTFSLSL
UniProt P30543: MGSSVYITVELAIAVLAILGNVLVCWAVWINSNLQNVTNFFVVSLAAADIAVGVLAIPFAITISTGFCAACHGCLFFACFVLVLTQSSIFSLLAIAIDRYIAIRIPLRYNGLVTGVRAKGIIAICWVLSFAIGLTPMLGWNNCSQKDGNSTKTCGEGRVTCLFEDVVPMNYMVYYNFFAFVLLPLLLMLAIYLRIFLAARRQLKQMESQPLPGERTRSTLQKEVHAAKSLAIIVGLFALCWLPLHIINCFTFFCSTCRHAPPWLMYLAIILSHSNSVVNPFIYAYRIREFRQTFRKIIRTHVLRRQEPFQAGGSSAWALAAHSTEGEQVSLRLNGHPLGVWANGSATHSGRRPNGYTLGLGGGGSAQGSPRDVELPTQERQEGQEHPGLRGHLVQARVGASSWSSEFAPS

Target: Adenosine A2 receptor (Rattus norvegicus, UniProt P29276+P30543)

Ki: 2.8 nM
Structure (SMILES): CCCCC#Cc1nc(N)c2ncn([C@@H]3O[C@H](CO)[C@@H](O)[C@H]3O)c2n1
